From patent US8987242B2, “Morpholinone compounds as factor IXA inhibitors” (Merck Sharp & Dohme Corp., priority 2008, dated 2015)

Protein sequences, listed by entry. Tags and fused reporters are not part of them. Residues count along the entry.
UniProt P00740, 227-461 limits assumed: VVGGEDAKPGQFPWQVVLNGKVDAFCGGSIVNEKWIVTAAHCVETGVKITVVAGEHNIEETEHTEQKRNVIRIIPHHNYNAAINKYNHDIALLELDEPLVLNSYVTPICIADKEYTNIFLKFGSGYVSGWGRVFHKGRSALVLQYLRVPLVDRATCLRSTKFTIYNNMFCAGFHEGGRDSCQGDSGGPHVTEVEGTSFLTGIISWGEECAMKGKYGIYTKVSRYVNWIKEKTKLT
UniProt P00740, 47-191 partner limits assumed: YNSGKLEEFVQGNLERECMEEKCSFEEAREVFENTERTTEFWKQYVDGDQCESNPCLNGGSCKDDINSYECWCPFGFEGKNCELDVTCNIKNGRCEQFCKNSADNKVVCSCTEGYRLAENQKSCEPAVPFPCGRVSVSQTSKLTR

Target: human factor IXa (Homo sapiens (Human), UniProt P00740)
Experiment: Determination of inhibitory activity against factor IXa (SPECTROFLUOR FIXa fluorogenic substrate enzyme assay)
Conditions: read-out: Factor IXa enzyme assay IC50; human factor IXa 2.0 μg/ml, SPECTROFLUOR FIXa 100 μM, 60 minutes at room temperature, pH 8.0; tested form: HCl

Work on `CNC(=N)c1ccc(NC(=O)[C@H](O)[C@H]2OCCN(c3ccc(C(C)(C)C)cc3)C2=O)cc1` yielded an IC50 of 32 nM.
